Data reported in US20230212210A1 (priority 2020, published 2023).

Target: S1 protein (or the S1 subunit) of SARS-CoV-2 (Severe acute respiratory syndrome coronavirus 2, UniProt P0DTC2)
Assay type: binding

## C[C@@H]1O[C@@H](O[C@H]2[C@H](O[C@@H]3O[C@H](CO)[C@H](O)[C@H](O)[C@H]3O)[C@@H](CO)OC(O)[C@@H]2O)[C@@H](O)[C@H](O)[C@@H]1O (some centres unmarked) [3-fucosyllactose, Galβ1-4(Fucα1-2)Glc]
Judged from the Kd data in Table 7
  affinity with the S1 protein (in words): relatively strong
Microscale thermophoresis, RED-NHS labelled S1 protein, read-out: Dissociation constants (Kd) of the binding of the S1 protein to various sugar chains
  Kd: 7.1 µM
